Values of other authors in patent publication US20260355144A1, “METAP2 INHIBITORS FOR THE TREATMENT OF PULMONARY FIBROSIS” (SynDevRx , Inc., priority 2022, published 2026).

Settings: HER2-positive metastatic breast cancer; certain patients; cited from earlier work

Substance: Enhertu: antibody-drug conjugate used to treat HER2-positive metastatic breast cancer
- induction of ILD: shown to induce ILD, including pneumonitis
